Yeast mating assay B: variants of the scFv Ab-14

From the AlphaSeq antibody data of Li et al. 2023 (doi:10.1038/s41467-023-39022-2), copy in the FLAb collection.

Target peptide (SARS-CoV-2 spike, HR2 region): PDVDLGDISGINAS

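This is the validation round: designs drawn from the data on random variants, tested in the same kind of assay. Their group label is 14L_Ctrl (Ctrl: baseline library sampled from a position-specific scoring matrix, with some repeated check sequences). Affinity was read by AlphaSeq, a pooled yeast mating assay with surface-displayed partners. Mating (16 h, 30 °C) was followed by selection of diploids and sequencing of their barcodes. A regression on co-assayed BCL2-family reference pairs converts the normalised counts of each replicate to an apparent Kd. The assay was run in six technical replicates.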

Parent: Ab-14, a human scFv built as VH, three GGGGS repeats, VL. Only the CDRs of the light chain vary.
VH: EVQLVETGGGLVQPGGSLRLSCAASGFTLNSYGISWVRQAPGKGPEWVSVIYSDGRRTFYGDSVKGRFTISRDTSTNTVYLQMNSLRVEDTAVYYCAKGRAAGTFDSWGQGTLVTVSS
VL: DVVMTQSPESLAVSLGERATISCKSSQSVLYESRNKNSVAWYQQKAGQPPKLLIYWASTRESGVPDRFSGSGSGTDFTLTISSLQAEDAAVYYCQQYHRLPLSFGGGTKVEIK

The parent's light chain CDRs are KSSQSVLYESRNKNSVA, WASTRES, QQYHRLPLS; each variant's own CDRs replace them letter for letter. Values are log10 of the apparent Kd in nM; lower means stronger binding. The mean shown is taken over the replicates in which the pair was detected. A pair that was not seen in that replicate is written "n.d."; this usually means weak binding, but a binder can also be missed. As a blank, each scFv also met three strains without target: over all light chain designs, 4% of these pairings were detected, typically at 2.64 and seldom below 1.59. For each scFv, signals with the empty controls are counted beside the result, with their mean in brackets. The authors averaged sequences with at least three values out of six and counted those with two or fewer as poor binders. The range of this assay differs from that of the first round, and the authors advise against merging the two.

CDR-L1,CDR-L2,CDR-L3,"log10 Kd, replicates","mean, log10 nM",empty controls
KSSRSVLYESRNKNSVA,DASTRES,QQYHMLPLR,1.00 0.38 0.25 0.37 0.42 0.64,0.51,1/18 (2.16)
KSSQSVLYEVRNKNSVA,AASTRES,QQYHRLPLF,n.d. n.d. n.d. n.d. n.d. 2.40,2.40,0/18
KSSQSVLYESRTKNSVA,WASTREK,QQYHRLPLS,2.41 n.d. 2.22 n.d. 2.27 2.01,2.23,1/18 (1.82)
KLSQSVLEERRNKYSVA,SASTRES,QQYHRLPLS,1.14 0.66 0.86 0.71 0.81 0.92,0.85,1/18 (4.52)
KCSFSTLYESRNSNSVA,WASTRES,QQYHRLPLS,1.27 0.94 0.59 0.64 1.00 1.37,0.97,0/18
KSSQSVLYESRNKNNVA,WASTRES,QQYHRLPLS,n.d. n.d. n.d. n.d. n.d. n.d.,n.d.,0/18
KFSQSVLYESRNKNSVA,DASTRED,QQYHRLPLS,0.74 0.42 0.44 0.46 0.20 0.34,0.43,0/18
KSSQSVLYESRNKNSVA,HASTRES,QQYHRTPLS,n.d. n.d. n.d. n.d. 4.06 n.d.,4.06,0/18
KCSQSVLQETRNKNSVA,SASTRES,QQYHRLPLS,0.13 0.02 -0.05 -0.17 -0.37 -0.02,-0.08,0/18
KSSQSVLYEERNFSSVA,KASTRES,QQYHRLPLS,1.54 1.92 1.69 2.19 2.17 2.60,2.02,1/18 (3.30)
KMSQSVLMESSNKNSVA,WASTREL,QQYHRLPLS,1.50 1.38 1.31 1.98 1.74 1.65,1.59,0/18
KFSQSVLYESSNKNSVA,WVSTRES,QQVHRLPLS,n.d. n.d. n.d. n.d. n.d. n.d.,n.d.,1/18 (1.92)
KSSQSVLYESRNRNSVA,EASTRES,QQYHRLPLS,0.54 0.77 0.57 0.15 0.28 0.39,0.45,0/18
KSSQNVLSESRNKNSVA,WASTRES,QQPHRLPLS,n.d. n.d. n.d. n.d. n.d. n.d.,n.d.,0/18
KSSQSVLDESRNDNSVA,WASTRNS,QQYHRLPLS,1.26 1.19 0.87 1.79 1.23 1.34,1.28,0/18
KSSQSVLYESRNKNSVA,WASTRES,QFYHRLPLS,3.33 2.64 n.d. 2.81 n.d. 2.10,2.72,0/18
KSSHSVLYESTNKNSVA,WASTRMS,QQYHRLPLS,0.75 0.73 0.67 0.64 0.65 0.90,0.72,0/18
KSSQSVLYESSNKNSVA,WAQTRES,QQYHRLPLS,n.d. n.d. n.d. n.d. 0.12 n.d.,0.12,0/18
KMSQLVLYDSRNKNSVA,AASTRES,QQYHRLPLS,-0.09 0.01 -0.19 -0.07 -0.20 0.11,-0.07,0/18
KLSQSVLYESRNCNPVA,WAKTRES,QQYHRLPLS,2.41 2.70 n.d. 2.79 2.48 n.d.,2.60,1/18 (2.48)
KSSQSVLYESRNKNSVA,WASARES,QQYHRLPLS,n.d. 2.31 n.d. n.d. n.d. n.d.,2.31,0/18
KSSQSVLYESRNKNSVA,EASTREP,QQYHTLLLS,1.25 0.97 0.97 0.70 0.87 n.d.,0.95,0/18
KSSQSVLYESRNKNSVA,RASTRES,YQYHRDPLM,n.d. n.d. n.d. n.d. n.d. n.d.,n.d.,0/18
KSSQSVLYESRNKNSVA,WATTRER,GQYHRLPLS,n.d. n.d. n.d. n.d. n.d. n.d.,n.d.,0/18
KSSQSVLYESRNKNSVA,WVSTRES,QQYHRLPLS,2.15 2.02 n.d. 1.95 n.d. n.d.,2.04,0/18
KISQSVLYESTNKNSVA,NASTRES,QQYHRLPLS,0.10 -0.12 -0.02 -0.30 -0.08 -0.05,-0.08,3/18 (2.32)
MSSQSVLYESRNMNSVA,WASTRES,QQYNRLPLS,n.d. 1.07 n.d. n.d. n.d. n.d.,1.07,0/18
QSSQSVLDESRNKNSVA,WASTRES,QQYHYLPLS,n.d. n.d. 2.85 n.d. n.d. n.d.,2.85,1/18 (4.20)
KSSQSVLYESGNKNAVA,GASMRGE,QQYHRLPLS,0.82 0.49 0.64 0.60 0.85 0.58,0.66,3/18 (2.46)
KSSQSVLYESFNKNSVA,PASTRES,QQYHRMPLS,n.d. n.d. n.d. n.d. n.d. n.d.,n.d.,0/18
KSSWAVLHESTNKNSVA,WASTRES,QQYHRLPLS,2.44 1.42 1.50 1.10 2.09 1.78,1.72,0/18
KFHQSNLYESRNKNSVA,AASTRES,QQYHRLPLS,0.11 0.28 0.13 -0.04 0.07 0.19,0.12,1/18 (4.12)
KSSQSVLGESRNKNSVA,WASTRES,QQYHLLPCS,n.d. n.d. n.d. n.d. n.d. n.d.,n.d.,0/18
KSSQAVLYESRNKNSVA,WASTRES,FQYHRLPLS,n.d. n.d. n.d. 2.57 n.d. n.d.,2.57,0/18
KTSQKVLYESRNKNSVA,AASTRES,QQTHRLPLF,0.47 0.38 0.09 0.22 0.23 0.43,0.30,3/18 (2.52)
KSSQSVLYETRNENSVA,HASTRES,QQYFRLPLS,0.48 0.17 0.25 0.13 0.11 0.27,0.24,0/18
KSSQSVLYEHENKNSVA,WASTRES,QQYHRLPLS,n.d. 1.08 1.68 0.87 1.58 2.10,1.46,0/18
KSSQSVLTESRNKNSVA,WGSTRLS,QQYHRLPLS,n.d. n.d. 0.56 n.d. n.d. n.d.,0.56,0/18
KSSQSVLYCSRNKNSVA,QASTRES,QQYHRLPLS,n.d. n.d. 2.29 n.d. n.d. 2.14,2.21,1/18 (2.32)
KMSQSVLDESRNKNSVA,DASTRFS,QQYLRLPLS,0.28 0.26 0.22 0.07 0.17 0.40,0.23,1/18 (2.90)
KISFSVLYESRNKNSVA,GASTRNA,QQYHRLPLS,1.15 0.85 0.83 0.74 1.03 1.02,0.94,3/18 (3.32)
TFYQSVLYESRNKNSVA,WASTRSN,QQYHRLFLS,n.d. n.d. n.d. n.d. n.d. n.d.,n.d.,0/18
KSSQSVLYESRNNNSVA,WASTRAS,QQYHRLPWS,n.d. n.d. 2.22 n.d. 2.52 n.d.,2.37,0/18
KSSQSVTYESRNKNSVA,WASTRES,QAYHRLPLS,n.d. n.d. n.d. n.d. n.d. n.d.,n.d.,0/18
KSSQSVLYESRNKNSVA,KASTRES,QQYHRLPLS,n.d. n.d. n.d. 1.78 n.d. 2.39,2.08,0/18
KSSDSNLYESRNKESVA,WASTRES,QQYHRLPLS,n.d. n.d. n.d. n.d. n.d. n.d.,n.d.,0/18
KSSQSVLYESRNKNSVA,HASTCES,QQTHRDPLS,n.d. n.d. n.d. n.d. n.d. n.d.,n.d.,0/18
KSSQSFLYESRNDNSVA,WASTRES,QQTHRLPLA,n.d. n.d. n.d. n.d. n.d. 1.31,1.31,0/18
KPSQSVLYESRNKNSVA,WASIRES,QQAHRLPLS,1.53 n.d. 2.19 n.d. 2.38 n.d.,2.03,2/18 (2.29)
KSDQSVLYESTHKNSVA,GASTRES,QQYHRLVLS,1.80 1.36 0.31 0.15 0.58 0.16,0.73,0/18
KYEVSVLYESRNHNSVA,RASTRES,QQYHRLPLS,0.85 1.01 1.63 1.00 1.27 1.57,1.22,2/18 (1.96)
KSSQSVLYESRNKNSVA,RASIRES,QQYHRLQLS,n.d. 1.89 n.d. n.d. n.d. n.d.,1.89,0/18

For reference, 4 entries of the list once more:

CDR-L1,CDR-L2,CDR-L3,"log10 Kd, replicates","mean, log10 nM",empty controls
KSSQSVLYESRNKNSVA,WATTRER,GQYHRLPLS,n.d. n.d. n.d. n.d. n.d. n.d.,n.d.,0/18
KSSQSVLYESRNKNNVA,WASTRES,QQYHRLPLS,n.d. n.d. n.d. n.d. n.d. n.d.,n.d.,0/18
KSSQSVLYEHENKNSVA,WASTRES,QQYHRLPLS,n.d. 1.08 1.68 0.87 1.58 2.10,1.46,0/18
KSSQSFLYESRNDNSVA,WASTRES,QQTHRLPLA,n.d. n.d. n.d. n.d. n.d. 1.31,1.31,0/18